# Values quoted from earlier work, collected in US7141170B2, “Halogenated solvent remediation” (North Wind, Inc., priority 2004, dated 2006).
# Conditions: Surfactant Concentration 1%; cited from earlier work
substance,measurement,value
Nonylphenol ethoxylate,PCE Solubilized,"1,300 mg/l"
